Test results reported in PMC10779987, “Machine-Learning- and Structure-Based Virtual Screening for Selecting Cinnamic Acid Derivatives as Leishmania major DHFR-TS Inhibitors” (Molecules, 2023).

Chains of the proteins cited; added tags and fusions are not shown. Lines headed by an entry give the natural chain unless they say otherwise; changes in a name come on top.
UniProt P07382: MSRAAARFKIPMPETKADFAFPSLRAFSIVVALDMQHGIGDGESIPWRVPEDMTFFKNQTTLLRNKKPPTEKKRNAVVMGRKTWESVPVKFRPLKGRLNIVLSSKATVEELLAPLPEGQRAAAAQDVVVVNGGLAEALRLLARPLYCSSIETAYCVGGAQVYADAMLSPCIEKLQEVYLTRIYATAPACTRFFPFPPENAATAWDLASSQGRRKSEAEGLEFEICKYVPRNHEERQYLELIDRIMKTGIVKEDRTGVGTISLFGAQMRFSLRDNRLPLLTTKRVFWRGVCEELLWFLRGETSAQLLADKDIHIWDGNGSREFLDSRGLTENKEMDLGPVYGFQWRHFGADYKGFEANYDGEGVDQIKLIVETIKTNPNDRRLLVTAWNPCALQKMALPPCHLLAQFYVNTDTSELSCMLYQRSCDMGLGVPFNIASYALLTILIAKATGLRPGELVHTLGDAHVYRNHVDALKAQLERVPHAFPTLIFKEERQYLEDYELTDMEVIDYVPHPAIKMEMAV

Biological target: LmDHFR-TS (Leishmania major, UniProt P07382)
Experiment: LmDHFR-TS enzymatic inhibition assay (spectrophotometric standard DHFR assay)
Details: HsDHFR versus LmDHFR-TS

With `COc1cc(C[C@H]2COC(=O)[C@@H]2Cc2cc(OC)c3c(c2)[C@H](CO)[C@@H](c2ccc(O)c(OC)c2)O3)ccc1O` [Compound 308, isolappaol A] the “SI (selectivity index)” value was 4.4.

In the case of `COc1ccc(C[C@H]2COC(=O)[C@@H]2Cc2cc(OC)c(O)c(-c3cc(C[C@H]4C(=O)OC[C@@H]4Cc4ccc(OC)c(OC)c4)cc(OC)c3O)c2)cc1OC` [Compound 306, diarctigenin], the “SI (selectivity index)” value is reported as 4.6.
